PubChem BioAssay AID651687 (Broad Institute, 2012)
The entries are a selection whose mix differs from that of the whole data set. Active and inactive are the calls of the source.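 The calls were made as follows: active = every replicate shows inhibition of at least 40%; inconclusive = mean inhibition at least 40% but some replicate below; inactive = the rest.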

assay: inhibitors of PGC1a acetylation signal, primary screen, cell-based, U2OS, AlphaScreen, inhibitor mode (AID 651687); conditions: AlphaScreen anti-acetyl-lysine, at 15.6 µM, stronger effect = higher value, with virally co-expressed GCN5 acetyltransferase;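 also: 0% = neutral control wells and 100% = positive control wells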

SMILES	inhibition
CN1CCC(Nc2ccc(Cl)cc2)CC1	inactive: -2.67%
CCC(CO)(C(=O)OC1CN2CCC1CC2)c1ccccc1 (centres undefined)	inactive: 4.1%
COc1cccc(C(=O)N(c2cc(C)cc(C)c2)C2CCN(C(=O)OC(C)(C)C)CC2)c1	inactive: -16.5%
COc1cccc(C(c2nnnn2C2CCCC2)N2CCC(n3c(=O)[nH]c4ccccc43)CC2)c1OC (centres undefined)	inactive: -13%
COc1cc(OC)cc(C(=O)NCC2(N3CCOCC3)CCCCC2)c1	inactive: 4.21%
O=c1[nH]c2ccccc2n1C1CCN(C(c2cc3ccccc3o2)c2nnnn2C2CCCC2)CC1 (centres undefined)	inactive: -20.3%
O=C(O)C1(Nc2ccccc2)CCN(Cc2ccccc2)CC1	inactive: -10.4%
CC(C)(C)OC(=O)N1CCC(Nc2ccccc2)CC1	inactive: -22.7%
CCOc1ncccc1C(=O)NCC1(N2CCOCC2)CCCCC1	inactive: -0.662%
Cn1c(=O)[nH]cc(N(CCCl)CCCl)c1=O	inactive: -4.63%
O=C(NCC1(N2CCCCC2)CCCCC1)c1ccco1	inactive: -2.53%
CC(C)(C)n1nnnc1C(c1ccnc2ccccc12)N1CCC(n2c(=O)[nH]c3ccccc32)CC1 (centres undefined)	inactive: 3.48%
COc1ccc(C(c2nnnn2C2CCCCC2)N2CCC(n3c(=O)[nH]c4ccccc43)CC2)cc1 (centres undefined)	inactive: -13.7%
Cc1ccccc1NC1(C#N)CCN(Cc2ccccc2)CC1	inactive: -2.32%
Cc1ccc(NC2(C#N)CCN(Cc3ccccc3)CC2)cc1	inactive: -5.93%
Fc1ccccc1NC1CCN(Cc2ccccc2)CC1	inactive: -8.82%
Cc1ccc(C(=O)NCC2(N3CCCCC3)CCCCC2)o1	inactive: 9.94%
O=c1[nH]c2ccccc2n1C1CCN(C(c2ccnc3ccccc23)c2nnnn2C2CCCCC2)CC1 (centres undefined)	inactive: -5.47%
CCC(c1nnnn1C1CCCCC1)N1CCC(n2c(=O)[nH]c3ccccc32)CC1 (centres undefined)	inactive: -18.9%
CC(=O)N(c1ccccc1)C1CCNCC1	inactive: 3.3%

SMILES	inhibition
COc1cccc(C(c2nnnn2C2CCCCC2)N2CCC(n3c(=O)[nH]c4ccccc43)CC2)c1OC (centres undefined)	inactive: -14.7%
CC(C)(C)n1nnnc1C(c1cccc2ccccc12)N1CCC(n2c(=O)[nH]c3ccccc32)CC1 (centres undefined)	inactive: -10.4%
O=c1[nH]c2ccccc2n1C1CCN(C(c2ccccc2)c2nnnn2C2CCCC2)CC1 (centres undefined)	inactive: -2.22%
CCCN1CCC(Nc2cc(OC)cc(OC)c2)CC1	inactive: 1.89%
Cc1cc(N(CCCl)CCCl)ccc1C=O	inactive: 0.204%
c1ccc(CN2CCC(Nc3ccccc3)CC2)cc1	inactive: -1.06%
CN(C)C1(CNC(=O)c2cccc(C#N)c2)CCCCC1	inactive: 7.57%
CC(C)(C)OC(=O)N1CCC(N(C(=O)c2ccccc2)c2ccc(Cl)cc2)CC1	inactive: 10.3%
N#Cc1ccc(C(=O)NCC2(N3CCCCC3)CCCCC2)cc1	inactive: -3.75%
CCCCn1nnnc1C(c1cccc(OC)c1OC)N1CCC(n2c(=O)[nH]c3ccccc32)CC1 (centres undefined)	inactive: -8.04%
O=c1[nH]c2ccccc2n1C1CCN(C(c2cccs2)c2nnnn2C2CCCC2)CC1 (centres undefined)	inactive: -49.4%
N/C(=N\O)c1c(N)no[n+]1[O-]	inactive: 3.18%
COc1cccc(C(c2nnnn2C(C)(C)C)N2CCC(n3c(=O)[nH]c4ccccc43)CC2)c1OC (centres undefined)	inactive: -21.3%
CCOC(=O)N1CCC(Nc2ccc(C)cc2)CC1	inactive: 4.9%
O=c1[nH]c2ccccc2n1C1CCN(C(c2ccnc3ccccc23)c2nnnn2C2CCCC2)CC1 (centres undefined)	inactive: -0.245%
COc1ccc(C(=O)NCC2(N3CCOCC3)CCCCC2)cc1OC	inactive: -4.06%
O=c1[nH]c2ccccc2n1C1CCN(C(c2cccs2)c2nnnn2C2CCCCC2)CC1 (centres undefined)	inactive: -25.6%
O=C(NCC1(N2CCOCC2)CCCCC1)c1cc(Br)ccc1Cl	inactive: 4.7%
COc1cc(C(=O)NCC2(N3CCOCC3)CCCCC2)cc(OC)c1C	inactive: 1.45%
CCCCn1nnnc1C(c1ccccc1)N1CCC(n2c(=O)[nH]c3ccccc32)CC1 (centres undefined)	inactive: 0.747%

SMILES	inhibition
CCCOc1ccc(C(=O)NCC2(N(C)C)CCCCC2)cc1OC	inactive: -7.79%
Cc1ccc(C(=O)NCC2(N(C)C)CCCCC2)o1	inactive: -21.7%
COc1ccc(C(c2nnnn2C2CCCC2)N2CCC(n3c(=O)[nH]c4ccccc43)CC2)cc1 (centres undefined)	inactive: -23.2%
O=C(NCC1(N2CCCCC2)CCCCC1)c1cncc(Br)c1	inactive: 4.94%
CN1CCC(Nc2cccc(F)c2)CC1	inactive: 5.9%
CCCCn1nnnc1C(c1ccnc2ccccc12)N1CCC(n2c(=O)[nH]c3ccccc32)CC1 (centres undefined)	inactive: 5.44%
O=C(NCC1(N2CCOCC2)CCCCC1)c1cc(F)c(F)cc1Cl	inactive: -5.2%
CCC(c1nnnn1C(C)(C)C)N1CCC(n2c(=O)[nH]c3ccccc32)CC1 (centres undefined)	inactive: -19.9%
COc1cc(OC)c(C(=O)NCC2(N(C)C)CCCCC2)cc1OC	inactive: -10.9%
COc1ccc(CN(CCCl)CCCl)cc1Cl	inactive: -15.7%
CC(C)c1ccc(NC2CCN(C(=O)OC(C)(C)C)CC2)cc1	inactive: 1.84%
CCCCn1nnnc1C(c1ccccc1OC(F)(F)F)N1CCC(n2c(=O)[nH]c3ccccc32)CC1 (centres undefined)	inactive: -3.53%
CCCCn1nnnc1C(c1cccc2ccccc12)N1CCC(n2c(=O)[nH]c3ccccc32)CC1 (centres undefined)	inactive: -14.2%
COc1ccc(NC2CCN(C(=O)OC(C)(C)C)CC2)cc1	inactive: -4.55%
CN1CCN(CCOC(=O)C(O)(c2ccccc2)c2ccccc2)CC1	inactive: 6.45%
O=C(NCC1(N2CCOCC2)CCCCC1)c1cc(=O)[nH]c2ccccc12	inactive: 0.604%
COc1cc(C(=O)NCC2(N3CCCCC3)CCCCC2)ccc1OC(F)F	inactive: -1.63%
O=C(NCC1(N2CCCCC2)CCCCC1)c1cccc(C(F)(F)F)c1	inactive: 19.8%
CSc1ccc(C(=O)NCC2(N3CCOCC3)CCCCC2)cc1	inactive: 2.14%
